For orientation: Kd means the constant that tells how readily two partners part at equilibrium.

The chains behind the UniProt entries cited, without tags or fusion partners. Residues count along the entry.
UniProt P54764, 29-209 C204A: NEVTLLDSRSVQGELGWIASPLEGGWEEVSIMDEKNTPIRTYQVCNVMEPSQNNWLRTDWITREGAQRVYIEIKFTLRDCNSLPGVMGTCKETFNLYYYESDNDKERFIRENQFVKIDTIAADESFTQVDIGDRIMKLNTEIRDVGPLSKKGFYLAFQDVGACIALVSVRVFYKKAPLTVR

For this test, the target named is T1, recombinant EphA4 ligand binding domain (Homo sapiens, UniProt P54764, C204A).
T1 construct: His tag (N); made in house; host or cells: E. coli Rosetta-Gami B(DE3), pET15b
Description: Isothermal titration calorimetry (ITC) against EphA4-LBD. The following applies: ITC with the ligand binding domain; Table 8. On the procedure:
Peptides were synthesized by using standard solid-phase synthesis protocol, using the BAL resin as anchoring for the C-terminal amines. Isothermal Titration Calorimetry (ITC) measurements were performed in a reverse fashion by titrating the protein into the ligand solution. Solution nuclear magnetic resonance (NMR) experiments were conducted on a 700 MHz Bruker Avance spectrometer equipped with a TCI cryoprobe. Each protein sample was dissolved into an NMR tube at a final concentration of 20 μM (1% DMSO-d6) in the presence of 20 μM of each compound.
The fragments were transformed into Rosetta-Gami B(DE3) competent cells and grown in LB medium at 37° C. with 100 μg/mL of ampicillin until reaching an OD600 of 0.6-0.7 followed by induction with 0.4 mM IPTG overnight at 20° C. Bacteria were then collected by centrifugation and lysed by sonication at 4° C. […] EphA4 LBD with ^13C^ε/^1H^ε-Met labeled was expressed like previously described but adding a suspension of 100 mg of ^13C^ε/^1H^ε-Methionine in 1 mL of DMSO per liter of LB medium, 10 minutes before induction. […] Transformation, expression, and purification of EphA3-LBD chimera was performed as described above for EphA4-LBD.
Isothermal titration calorimetry (ITC) measurements were performed using the Affinity ITC Autosampler from TA Instruments (New Castle, Del.). […]
(ITC needs no label: the signal is the heat of the interaction.)

As to `COc1ccc2[nH]cc(CCNC(=O)[C@H](Cc3ccncc3)NC(=O)[C@H](Cc3ccc(Cl)cc3)NC(=O)[C@H](Cc3c[nH]c4ccc(O)cc34)NC(=O)CCCN)c2c1` [Compound 123C4, reference compound], the Kd amounted to 400 nM.

For the origin of these results see US20230203096A1, “EPHA4 TARGETING COMPOUNDS AND METHODS OF USE THEREOF” (priority 2020, published 2023).
